Here are results for 6 molecules from publication PMC10541190 (The Journal of Clinical Investigation, 2023).

One may read the viability as a per cent measure of how many cells are alive, often set against a control. Read a low viability as more harm to the cells.

The test system of one data set is ErbB2. The note with it: cited from earlier work.
Another data set deals with ErbB4. The note with it: cited from earlier work.
For a further data set, the target named is ErbB2 (HER2) (Homo sapiens, UniProt P04626). It counts as biochemical.
Another data set concerns Huh7 cells. The conditions noted are these: human.
Another data set can be described thus: in vitro. The note with it: human, Huh7 cell viability (%).

SMILES strings stand for the structures. Like-named read-outs stand apart in the source and are kept apart here.

On to `CS(=O)(=O)CCNCc1ccc(-c2ccc3ncnc(Nc4ccc(OCc5cccc(F)c5)c(Cl)c4)c3c2)o1` [Lapatinib], for which the “% of control, ErbB2” value in the data set with ErbB2 was 35.1 nM 0%. The “% of control, ErbB4” value in the data set on ErbB4 is 10.8 nM 0.2%. The anti-ErbB2 activity result on ErbB2 (HER2) is listed as “confirmed its anti-ErbB2 activity”.
For the molecule `CNc1ccc2oc(C[C@H]3O[C@@]4(CC[C@H]3C)O[C@H]([C@H](C)C(=O)c3ccc[nH]3)[C@H](C)C[C@H]4C)nc2c1C(=O)O` [Calcimycin], in the data set on Huh7 cells (0.37 µM), the “Huh7 cell viability (%)” value is recorded as 97.49%.
In the case of `CNc1ccc2oc(C[C@H]3O[C@@]4(CC[C@H]3C)O[C@H]([C@H](C)C(=O)c3ccc[nH]3)[C@H](C)C[C@H]4C)nc2c1C(=O)O` [Calci-mycin], the “Cell viability (%)” value with Vero cells (20 μM) is listed as 87.78%.
For the molecule `COc1ccc2cc1Oc1ccc(cc1)C[C@H]1c3cc(c(OC)cc3CCN1C)Oc1c(OC)c(OC)cc3c1[C@H](C2)N(C)CC3` [Tetran-drine], the “Cell viability (%)” value in the data set on Vero cells (0.625 μM) is given as 102.48%.
In the case of `COc1ccc2cc1Oc1ccc(cc1)C[C@H]1c3cc(c(OC)cc3CCN1C)Oc1c(OC)c(OC)cc3c1[C@H](C2)N(C)CC3` [Tetrandrine, Berbaman, 6,6',7, 12-tetramethoxy-2,2'-dimethyl-, (1β)-], in the data set on Huh7 cells (0.37 µM), the “Huh7 cell viability (%)” value is 95.71%. In “in vitro”, the viability at 0.37 µM was determined as 96.2%.
For `[N-]=[N+]=CC(=O)OC[C@H](N)C(=O)O` [Azaserine], the “Huh7 cell viability (%)” value with Huh7 cells (10 µM) is recorded as 57.42%.
